# Legend:
# [1] = target: IL-23 stimulated phosphorylated STAT3 in PBMCs (Homo sapiens, UniProt Q5VWK5); assay: PBMC pSTAT3 assay; type: cell-based; details: PBMCs from healthy donors, IL-23 5 ng/mL, 30 minutes
# [2] = Stability in simulated intestinal fluid (SIF); type: in vitro ADME; details: 100 fold dilution of standard SIF concentration, 37° C., 20 μM
# Summary of the method: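 Peptides at 20 μM final were incubated at 37 °C in SIF (potassium phosphate with pancreatin, pH 6.8), and reactions were quenched with acetonitrile/1% formic acid at time points from 0 min to 24 h. Percent remaining relative to time 0 was determined by LC-MS/MS against an internal standard, and half-life came from a first-order decay fit.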
# [3] = target: IL-23 induced IFNγ in natural killer (NK) cells (Homo sapiens, UniProt Q5VWK5); assay: NK cell based assay (IL-23/IL-18 induced IFNγ); details: IL-23 at EC50 to EC75 and IL-18 10 ng/mL, IFNγ in supernatant after 20 to 24 hours
# Excerpt: Example 3: NK Cell Based Assay
# IL-23R = target: T1, IL-23R (Homo sapiens, UniProt Q5VWK5); assay: DB cells IL23R pSTAT3 cell assay (pStat3 HTRF); type: cell-based; details: IL-23R-expressing DB cells, IL-23 0.5 nM, 30 minutes
# T1 construct: examines the levels of pSTAT3 in IL-23R-expressing DB cells when stimulated with IL-23; host or cells: DB cells
# T1 sequence (Q5VWK5 24-629): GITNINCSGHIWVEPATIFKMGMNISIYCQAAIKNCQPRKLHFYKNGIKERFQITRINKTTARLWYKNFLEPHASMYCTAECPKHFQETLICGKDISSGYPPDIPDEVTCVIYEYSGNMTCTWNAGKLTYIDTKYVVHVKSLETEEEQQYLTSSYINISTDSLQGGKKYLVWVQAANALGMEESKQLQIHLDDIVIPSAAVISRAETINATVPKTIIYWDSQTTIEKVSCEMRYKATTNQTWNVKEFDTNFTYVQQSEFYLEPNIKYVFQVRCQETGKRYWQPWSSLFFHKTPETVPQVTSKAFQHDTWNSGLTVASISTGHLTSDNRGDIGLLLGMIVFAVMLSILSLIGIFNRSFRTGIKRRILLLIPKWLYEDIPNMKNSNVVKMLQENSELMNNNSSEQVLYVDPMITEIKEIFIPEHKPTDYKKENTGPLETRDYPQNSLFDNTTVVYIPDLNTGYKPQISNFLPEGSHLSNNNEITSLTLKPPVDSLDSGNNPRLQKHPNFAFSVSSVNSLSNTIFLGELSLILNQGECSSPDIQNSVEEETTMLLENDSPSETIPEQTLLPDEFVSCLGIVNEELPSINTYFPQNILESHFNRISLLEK
Substance,IC50 [1] [nM],SIF t½ [2] [h],IC50 [3] [nM],IC50 (IL-23R) [nM]
Ac-[Pen]-N-T-[W(7-Me)]-[Lys(Ac)]-[Pen]-Phe[4-(2-aminoethoxy)]-[2-Nal]-[THP]-E-N-[3Pal]-[Sarc]-NH2 [Peptide 104],0.00515,>24.0,0.0192,0.022
Ac-[Pen]-N-T-[W(7-Ph)]-[Lys(Ac)]-[Pen]-Phe[4-(2-aceylaminoethoxy)]-[2-Nal]-[THP]-[Lys(Ac)]-N-[3Pal]-[Sarc]-NH2 [Peptide 137],0.012,22.7,0.0177,0.06
Ac-[Pen]-N-T-[W(7-Ph)]-[Lys(Ac)]-[Pen]-Phe[4-(2-aminoethoxy)]-[2-Nal]-[THP]-E-N-[3Pal]-[Sarc]-NH2 [Peptide 106],0.0087,>23.0,0.0325,0.044
